Experimental data reported in ChEMBL document CHEMBL1129127, “Potent and selective PKC inhibitory 5-membered ring analogs of balanol with replacement of the carboxamide moiety” (Bioorg Med Chem Lett, 1996).

Biological target: T1, Protein kinase C epsilon type (Homo sapiens, UniProt Q02156)
T1 sequence (Q02156 whole entry): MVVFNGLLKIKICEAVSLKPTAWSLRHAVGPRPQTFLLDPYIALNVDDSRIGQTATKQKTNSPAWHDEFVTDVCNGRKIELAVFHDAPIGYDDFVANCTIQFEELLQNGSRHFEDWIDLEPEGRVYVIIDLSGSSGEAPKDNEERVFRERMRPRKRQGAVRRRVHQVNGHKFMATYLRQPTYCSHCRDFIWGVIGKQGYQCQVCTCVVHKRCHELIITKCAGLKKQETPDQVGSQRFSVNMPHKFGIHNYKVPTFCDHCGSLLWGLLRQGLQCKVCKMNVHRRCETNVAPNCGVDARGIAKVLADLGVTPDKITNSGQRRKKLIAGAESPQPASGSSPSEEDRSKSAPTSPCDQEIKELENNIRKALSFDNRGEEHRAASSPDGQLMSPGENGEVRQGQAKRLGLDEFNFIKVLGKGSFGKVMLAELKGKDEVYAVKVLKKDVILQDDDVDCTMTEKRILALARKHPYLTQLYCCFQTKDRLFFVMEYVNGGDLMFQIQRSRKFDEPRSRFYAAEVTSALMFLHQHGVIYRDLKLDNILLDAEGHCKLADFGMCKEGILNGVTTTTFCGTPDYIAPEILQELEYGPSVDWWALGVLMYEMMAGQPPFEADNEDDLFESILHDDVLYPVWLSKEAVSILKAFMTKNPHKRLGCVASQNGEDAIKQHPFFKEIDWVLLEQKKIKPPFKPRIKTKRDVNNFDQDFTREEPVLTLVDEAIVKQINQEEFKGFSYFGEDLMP
Assay: Inhibition of protein kinase C epsilon

IC50: 20 nM
SMILES: O=C(NC1CNCCCC1OC(=O)c1cc(O)c(C(=O)c2c(O)cccc2C(=O)O)c(O)c1)c1ccc(O)cc1 (single isomer, unassigned; (-))
